## Membrane permeability of cyclic peptides

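Lipid, pH, incubation time, direction and concentration are not recorded in the data file. Other peptides of the study may be missing here. Peptides that the database sets to -10, its floor, are left out.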

PAMPA is the parallel artificial membrane permeability assay, which has no cells and reads passive diffusion. P is given in units of 10^-6 cm/s (from log10 values with two decimals); larger means faster passage.

PAMPA (10^-6 cm/s) | compound
7.1 | CCCC[C@@H]1NC(=O)[C@H](CC(C)C)N(C)C(=O)CN(CC2CCCCC2)C(=O)[C@H](C)NC(=O)CN(CC)C(=O)[C@@H]2CCCN2C1=O
4.5 | CCCC[C@@H]1NC(=O)[C@@H](CC(C)C)N(C)C(=O)CN(CC2CCCCC2)C(=O)[C@H](Cc2ccccc2)NC(=O)CN(CCCOC(C)C)C(=O)[C@@H]2CCCN2C1=O
6.2 | CCCCCN1CC(=O)N(C)[C@H](CC(C)C)C(=O)N[C@@H](CCCC)C(=O)N2CCC[C@@H]2C(=O)N(CCCOC(C)C)CC(=O)N[C@H](Cc2ccccc2)C1=O
3.6 | CCCCCN1CC(=O)N[C@H](CC(C)C)C(=O)N[C@@H](CCCC)C(=O)N2CCC[C@@H]2C(=O)N(Cc2ccc3c(c2)OCO3)CC(=O)N[C@H](Cc2ccccc2)C1=O
2.6 | CCCCCN1CC(=O)N(C)[C@H](CC(C)C)C(=O)N[C@@H](CCCC)C(=O)N2CCC[C@@H]2C(=O)N(CCCOC(C)C)CC(=O)N[C@@H](Cc2ccccc2)C1=O
1.1 | CCCC[C@@H]1NC(=O)[C@H](CC(C)C)NC(=O)CN(CC2CCCCC2)C(=O)[C@@H](C)NC(=O)CN(CCCOC(C)C)C(=O)[C@@H]2CCCN2C1=O
15 | CCCC[C@@H]1NC(=O)[C@H](CC(C)C)N(C)C(=O)CN(CC2CCCCC2)C(=O)[C@H](C)NC(=O)CN(CCCOC(C)C)C(=O)[C@H]2CCCN2C1=O
0.0055 | CCCCCN1CC(=O)N(C)[C@H](CC(C)C)C(=O)N[C@@H](CCCC)C(=O)N2CCC[C@@H]2C(=O)N(Cc2ccc3c(c2)OCO3)CC(=O)N[C@@H](Cc2ccccc2)C1=O
0.71 | CCCC[C@@H]1NC(=O)[C@@H](CC(C)C)NC(=O)CN(CC2CCOCC2)C(=O)[C@@H](Cc2ccccc2)NC(=O)CN(CC)C(=O)[C@H]2CCCN2C1=O
0.54 | CCCC[C@@H]1NC(=O)[C@@H](CC(C)C)N(C)C(=O)CN(CC2CCOCC2)C(=O)[C@H](C)NC(=O)CN(CCCOC(C)C)C(=O)[C@@H]2CCCN2C1=O
13 | CCCCCN1CC(=O)N(C)[C@@H](CC(C)C)C(=O)N[C@@H](CCCC)C(=O)N2CCC[C@H]2C(=O)N(Cc2ccc3c(c2)OCO3)CC(=O)N[C@@H](C)C1=O
6.9 | CCCC[C@@H]1NC(=O)[C@@H](CC(C)C)NC(=O)CN(CC2CCCCC2)C(=O)[C@@H](Cc2ccccc2)NC(=O)CN(CCCOC(C)C)C(=O)[C@H]2CCCN2C1=O

The 2 lowest values of PAMPA among the entries above:

compound | PAMPA (10^-6 cm/s)
CCCCCN1CC(=O)N(C)[C@H](CC(C)C)C(=O)N[C@@H](CCCC)C(=O)N2CCC[C@@H]2C(=O)N(Cc2ccc3c(c2)OCO3)CC(=O)N[C@@H](Cc2ccccc2)C1=O | 0.0055
CCCC[C@@H]1NC(=O)[C@@H](CC(C)C)N(C)C(=O)CN(CC2CCOCC2)C(=O)[C@H](C)NC(=O)CN(CCCOC(C)C)C(=O)[C@@H]2CCCN2C1=O | 0.54

Values of Furukawa et al. 2016, doi:10.1021/acs.jmedchem.6b01246, as listed in CycPeptMPDB.